The structures appear in SMILES notation. The list shows a part of the results, in another mix than the full data. Activity calls are given as the source filed them. Cut-off read from the data, not from the text of the source: active = TR-FRET ratio above about 2300; inactive = the rest.

This experiment can be described thus: signal artefacts in PPARgamma/SRC-1 readout – biochemical, TR-FRET emission ratio, artefact control for PPARgamma SRC-1 recruitment agonists, primary screen (AID 1051). As to conditions: TR-FRET detection artefact counter-screen, at 8 µM, stronger effect = higher value. (Time-resolved FRET reads energy transfer from a long-lived donor to a nearby acceptor.)
Consider `O=P(Nc1ccccn1)(c1cccc2ccccc12)c1cccc2ccccc12`, for which the TR-FRET ratio is inactive: 1810.
On to `Cc1cc(SC(NC=O)C(Cl)(Cl)Cl)ncn1` (configuration not stated), for which the TR-FRET ratio was inactive: 1520.
As to `Cc1cc(SC(NC(=O)c2ccccc2)C(Cl)(Cl)Cl)nc(C(C)C)n1` (configuration not stated), the TR-FRET ratio is inactive: 1650.
Take `COc1ccc(N/C(=N/P(=O)(N2CCOCC2)N2CCOCC2)N2CCOCC2)cc1`: the TR-FRET ratio was inactive: 1700.
On to `COc1ccc2nc(NP(=O)(c3ccccc3)c3ccccc3)sc2c1`, for which the TR-FRET ratio is inactive: 1900.
With `Cc1c2c(nc3ccccc13)SC(C(Cl)Cl)C2` (configuration not stated) the figure was inactive: 1780; with `Cc1cc(=O)[nH]c(N[N+](=O)[O-])n1`, inactive: 1500; with `CC(C)NC(=O)NP(=O)(Oc1ccccc1)Oc1ccccc1`, inactive: 1840.
`O=[N+]([O-])c1cc([N+](=O)[O-])c(-c2ccn[nH]2)s1`: the TR-FRET ratio is inactive: 1910.
With `Cc1ccc2nc3c(c(C)c2c1)CC(C(Cl)Cl)S3` (configuration not stated) the figure was inactive: 1800; with `O=P(Nc1nccs1)(c1ccccc1)c1nc2ccccc2s1` (configuration not stated), inactive: 1720; with `O=P(Nc1nccs1)(Oc1ccccc1)Oc1ccccc1`, inactive: 1790.
On to `COc1cc(C2NCCC3(OCCO3)C2(C)C)cc(OC)c1OC` (configuration not stated), for which the TR-FRET ratio is inactive: 1840.
As to `CCOP(=O)(Nc1cccc2ccccc12)OCC`, the TR-FRET ratio was inactive: 1950.
The result for `Cc1ccc(NCCc2c([N+](=O)[O-])cc([N+](=O)[O-])cc2[N+](=O)[O-])cc1` reads inactive: 1750; that for `COc1cc(C(=O)NCC2(N3CCOCC3)CCCCC2)cc(Cl)c1OC(C)C`, inactive: 1810.
With `CC(C)/C=N\N=C(\N)N[N+](=O)[O-]` the figure was inactive: 1660; with `CN(C(=O)Cc1ccc(Cl)c(Cl)c1)[C@@H]1CCCC[C@H]1N1CCCC1`, inactive: 1820.
With `CN(C)C1(CNC(=O)c2ccc(S(C)(=O)=O)cc2)CCCCC1` the figure was inactive: 1650.
On to `CC1CCC(C(C)C)C(OP(=O)(Nc2ccccn2)c2ccccc2)C1` (configuration not stated), for which the TR-FRET ratio is inactive: 1840.
The result for `C(Cc1nn[nH]n1)Cc1nn[nH]n1` reads inactive: 1760.
The result for `CC(=O)NC(SC(=S)N(C)C)C(Cl)(Cl)Cl` (configuration not stated) reads inactive: 1770.
The result for `O=P(Nc1ccccn1)(c1ccc(Br)cc1)c1ccc(Br)cc1` reads inactive: 1870.
On to `CC(C)C(=O)NC(Sc1ccccc1)C(Cl)(Cl)Cl` (configuration not stated), for which the TR-FRET ratio is inactive: 1670.
For `CC(=O)Nc1ccc(Oc2c([N+](=O)[O-])cc([N+](=O)[O-])cc2[N+](=O)[O-])cc1`, the TR-FRET ratio was inactive: 1970.
The result for `CC(C)(C)C(=O)NC(Sc1ccccc1)C(Cl)(Cl)Cl` (configuration not stated) reads inactive: 1650; that for `CCOc1ccc(C2=NCC(CBr)S2)cc1` (configuration not stated), inactive: 1670; that for `O=c1c2cc([N+](=O)[O-])ccc2[nH]c2c([N+](=O)[O-])cc([N+](=O)[O-])cc12`, inactive: 1770.
The result for `CC(=O)NC(SC(=S)N(CC(C)C)CC(C)C)C(Cl)(Cl)Cl` (configuration not stated) reads inactive: 2050; that for `Cc1ccc(OP(=O)(Nc2ccccn2)Oc2ccc(C)cc2)cc1`, inactive: 1640; that for `c1ccc(-c2nn[nH]n2)c(-c2nn[nH]n2)c1`, inactive: 1520.
With `CCNC(=S)/N=C(\N)N[N+](=O)[O-]`, the TR-FRET ratio is inactive: 1720.
The result for `O=C(NC1CCS(=O)(=O)C1)NP(=S)(Oc1ccccc1)Oc1ccccc1` (configuration not stated) reads inactive: 2010; that for `CCN(N=Nc1nonc1N)c1nonc1N`, inactive: 1700.
The result for `Cc1cc(SC(NC(=O)c2ccc(F)cc2)C(Cl)(Cl)Cl)ncn1` (configuration not stated) reads inactive: 1870; that for `O=C(NC(Sc1ccncn1)C(Cl)(Cl)Cl)c1ccccc1` (configuration not stated), inactive: 1810; that for `Clc1ccc(Cl)c(NC2=NCC(CBr)S2)c1` (configuration not stated), inactive: 1830.
The result for `COc1ccccc1OP(=O)(Nc1ccc(C)cn1)Oc1ccccc1OC` reads inactive: 1710.
For the compound `Cc1ccc(N/C(=N/P(=O)(N2CCOCC2)N2CCOCC2)N2CCOCC2)cc1`, the TR-FRET ratio was inactive: 1790.
The result for `NC(=O)c1cc([N+](=O)[O-])cc([N+](=O)[O-])c1N` reads inactive: 1770.
With `CC(C)=N/N=C(\N)N[N+](=O)[O-]` the figure was inactive: 1630.
With `CN(C)C(=O)OCCc1n(C)cc[n+]1C` the figure was inactive: 1530.
As to `CCN(/C(=N/P(=O)(N1CCOCC1)N1CCOCC1)N1CCOCC1)c1ccc(OC)cc1`, the TR-FRET ratio was inactive: 1700.
With `Cc1ccc(NP(=O)(Oc2ccccc2)Oc2ccccc2)nc1` the figure was inactive: 1770.
On to `O=[N+]([O-])c1cc([N+](=O)[O-])c(CCNc2ccccc2)c([N+](=O)[O-])c1`, for which the TR-FRET ratio is inactive: 2040.
With `COc1ccc(C2=NCC(CBr)S2)cc1` (configuration not stated) the figure was inactive: 1780; with `O=[N+]([O-])c1ncn(CCn2ncnc2[N+](=O)[O-])n1`, inactive: 1590.

The values above are taken from PubChem BioAssay AID1051 (The Scripps Research Institute Molecular Screening Center, 2008).
